Test results reported in US20080280851A1 (Clavis Pharma AS, priority 2005, published 2008).

System: Colon 6044 (human colon carcinoma)
Assay: Antitumour activity in Co6044 after oral administration (Table 3)
Conditions: all tested doses

With `Nc1ccn([C@@H]2O[C@H](CO)[C@@H](O)C2(F)F)c(=O)n1` [Gemcitabine, 2′,2′-difluorodeoxycytidine, reference compound] the “toxicity after oral administration” value was “toxic at all tested doses”.
